# Source: publication PMC11652885, “Natural volatiles preventing mosquito biting: An integrated screening platform for accelerated discovery of ORco antagonists” (The Journal of Biological Chemistry, 2024)
# Protein sequences, listed by entry. Tags and fused reporters are not part of them. Lines headed by an entry give the natural chain unless they say otherwise; changes in a name come on top.
# UniProt Q7QCC7: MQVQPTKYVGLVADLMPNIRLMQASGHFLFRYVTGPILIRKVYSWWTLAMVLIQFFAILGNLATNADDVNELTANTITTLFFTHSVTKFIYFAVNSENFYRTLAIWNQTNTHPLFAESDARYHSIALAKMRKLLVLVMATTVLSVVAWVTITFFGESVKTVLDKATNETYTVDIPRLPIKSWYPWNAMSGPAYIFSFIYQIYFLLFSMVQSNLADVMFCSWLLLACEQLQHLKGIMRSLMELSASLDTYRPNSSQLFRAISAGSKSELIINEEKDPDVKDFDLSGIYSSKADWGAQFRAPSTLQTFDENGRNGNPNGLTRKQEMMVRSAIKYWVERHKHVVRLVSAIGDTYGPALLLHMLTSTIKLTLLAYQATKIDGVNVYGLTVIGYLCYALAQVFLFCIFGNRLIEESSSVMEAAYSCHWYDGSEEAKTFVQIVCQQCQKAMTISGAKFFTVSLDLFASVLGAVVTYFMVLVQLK
# Legend:
# AgamORco [1] = molecular target: T1, AgamORco (Anopheles gambiae, UniProt Q7QCC7); assay: Insect cell-based (Bm5 cells expressing AgamORco and Photina) Ca2+ influx luminescence screen for ORco antagonists; settings: for % response at 100μΜ OA / inhibition of ORco activity: compound 100 μM; for % response at 100μΜ OA: then 100 μM OA, OA alone = 100%; for inhibition of ORco activity: 100 μM OA; for Cell-based activity (IC50 in μM) / Ex vivo validation: new VOC collection; for Cell-based activity (IC50 in μM): NA entries; for Ex vivo validation: compounds at 100 μM
# AgamORco [2] = molecular target: T1, AgamORco; settings: ref [25], cited from earlier work; for Antagonist type: orthosteric or allosteric relative to the OrcoRAM2 binding site, previously identified; for IC50: read-out: Cell-based activity (IC50 in μM), previously identified orthosteric antagonists of the training set
# AgamORco [3] = molecular target: T1, AgamORco; settings: cited from earlier work; for Ex vivo validation: training-set pharmacophore hits, previously reported ex vivo activities, ref [26]; for Cell-based activity (IC50 in μM): training-set compounds, NA entries
# Aedes albopictus = assay: Hand in a cage repellence bioassay (human hand landing counts); assay type: in vivo; settings: for RI (at 10nmole/cm^2): repellency index, 10 nmole/cm^2 of exposed hand area, 5-min landing counts
# AgamORco [4] = molecular target: T1, AgamORco; assay: Competition (binding) assays against the ORco agonist OrcoRAM2 in Bm5 cells expressing AgamORco and Photina; settings: for Antagonist type: orthosteric or allosteric relative to the ORco agonist binding site, competition with 50, 100, 150 μM OrcoRAM2
# [5] = in the presence of 100 μM ORco agonist (OA, OrcoRAM2)
# [6] = in the presence of 50 μM ORco agonist (OA, OrcoRAM2)
# [7] = in the presence of 150 μM ORco agonist (OA, OrcoRAM2)
compound,measurement,setting,value
CC(C)=CCC/C(C)=C/CO,% response at 100μΜ OA,AgamORco [1],43%
Isopropyl cinnamate,Antagonist type,AgamORco [2],orthosteric
same,IC50,AgamORco [2],41.7 µM
same,inhibition of ORco activity,AgamORco [1],48%
same,% response at 100μΜ OA,AgamORco [1],52%
same,Ex vivo validation,AgamORco [3],√ (>40% inhibition)
same,RI (at 10nmole/cm^2),Aedes albopictus,0.29 ± 0.04
"CCCC=CC=CC=O [compound 39, 2,4-Octadienal]",Antagonist type,AgamORco [2],orthosteric
same,IC50,AgamORco [2],59.8 µM
same,Ex vivo validation,AgamORco [3],√ (>40% inhibition)
CCOC(=O)/C=C/c1ccccc1,Antagonist type,AgamORco [2],orthosteric
same,IC50,AgamORco [2],64.5 µM
same,Ex vivo validation,AgamORco [3],√ (>40% inhibition)
Phytol,Cell-based activity (IC50 in μM),AgamORco [1],NA (not or marginally active (≤40% inhibition) in the ex vivo assays)
same,Ex vivo validation,AgamORco [1],NA (Not active or less than 40% maximum inhibition in the competition assay)
CC1=CCC2[C@H](C1)C2(C)C (some centres unmarked),Antagonist type,AgamORco [2],allosteric
CC(=O)CCC=C(C)C,Cell-based activity (IC50 in μM),AgamORco [3]; ref [25],NA (not or marginally active (≤40% inhibition) in the ex vivo assays)
same,Ex vivo validation,AgamORco [3],NA (not active (<40% inhibition))
C=CC(C)(O)CCC=C(C)C (centres unmarked),inhibition of ORco activity,AgamORco [1],no- or low-activity inhibitors
same,% response at 100μΜ OA,AgamORco [1],98%
"CC(C)=CCC[C@](C)(O)[C@@H]1CC=C(C)CC1 [compound 77, α-Bisabolol]",IC50,AgamORco [4]; [5],47 µM
same,Antagonist type,AgamORco [4],orthosteric
"CC1(C)C2CCC1(C)C(O)C2 (centres unmarked) [compound 64, Borneol]",pIC50 ± error,AgamORco [4]; OA conc. 50 μM,4.0602 ± 0.2401
same,pIC50 ± error,AgamORco [4]; OA conc. 150 μM,4.068 ± 0.09235
same,IC50,AgamORco [4]; [5],86.5 µM
same,Antagonist type,AgamORco [4],allosteric
same,RI (at 10nmole/cm^2),Aedes albopictus,0.58 ± 0.02
cis-Jasmone,Cell-based activity (IC50 in μM),AgamORco [1],NA (not or marginally active (≤40% inhibition) in the ex vivo assays)
same,Ex vivo validation,AgamORco [1],NA (Not active or less than 40% maximum inhibition in the competition assay)
CCCCCCC(C)=O,Cell-based activity (IC50 in μM),AgamORco [3]; ref [25],NA (not or marginally active (≤40% inhibition) in the ex vivo assays)
same,Ex vivo validation,AgamORco [3],NA (not active (<40% inhibition))
CC(=O)OC/C=C(\C)CCC=C(C)C,% response at 100μΜ OA,AgamORco [1],67%
CC12CCC(C1)C(C)(C)C2=O (centres unmarked),% response at 100μΜ OA,AgamORco [1],67%
C=CC(C)(CCC=C(C)C)OC(C)=O (centres unmarked),Antagonist type,AgamORco [2],orthosteric
same,IC50,AgamORco [2],67.7 µM
same,% response at 100μΜ OA,AgamORco [1],59%
same,Ex vivo validation,AgamORco [3],√ (>40% inhibition)
Ethyl (E/Z)-2-(cyclohex-2-en-1-ylidene) acetate,pIC50 ± error,AgamORco [4]; OA conc. 50 μM,3.901 ± 0.3215
same,pIC50 ± error,AgamORco [4]; OA conc. 100 μM,3.711 ± 0.2615
same,pIC50 ± error,AgamORco [4]; OA conc. 150 μM,3.599 ± 0.2537
same,IC50,AgamORco [4]; [6],124 µM
same,IC50,AgamORco [4]; [5],196 µM
same,IC50,AgamORco [4]; [7],252 µM
same,Antagonist type,AgamORco [4],orthosteric
same,Ex vivo validation,AgamORco [1],√ (Validated antagonist hits have been defined as VOCs causing at least 40% inhibition of ORco activity in the ex vivo assays)
same,repellence index (RI),"Aedes albopictus; dose 50 nmole/cm^2, preliminary tests, data not shown",high activities
C=C(C)C1CC=C(C)C(=O)C1 (centres unmarked),% response at 100μΜ OA,AgamORco [1],71%
Bisabolene,IC50,AgamORco [4]; [5],47.7 µM
same,Antagonist type,AgamORco [4],orthosteric
same,Ex vivo validation,AgamORco [1],√ (Validated antagonist hits have been defined as VOCs causing at least 40% inhibition of ORco activity in the ex vivo assays)
C=CC(C)(O)CC/C=C(\C)CCC=C(C)C (centres unmarked),% response at 100μΜ OA,AgamORco [1],51%
C=CC(=C)CCC=C(C)C,% response at 100μΜ OA,AgamORco [1],71%
CC(C)=CCC/C(C)=C/C=O,inhibition of ORco activity,AgamORco [1],reduced activities bordering the arbitrary cutoff inhibition limit
same,% response at 100μΜ OA,AgamORco [1],69%
CCCCCC(=O)O,inhibition of ORco activity,AgamORco [1],marginal inhibitory activity
same,% response at 100μΜ OA,AgamORco [1],59%
Limonene oxide,Cell-based activity (IC50 in μM),AgamORco [1],NA (not or marginally active (≤40% inhibition) in the ex vivo assays)
same,Ex vivo validation,AgamORco [1],NA (Not active or less than 40% maximum inhibition in the competition assay)
CCCCC(=O)CCC,ORco ex vivo inhibition,"AgamORco [3]; previous ex vivo activity screens, ref [25]",did not display any antagonist activities
same,Cell-based activity (IC50 in μM),AgamORco [3]; ref [25],NA (not or marginally active (≤40% inhibition) in the ex vivo assays)
same,Ex vivo validation,AgamORco [3],NA (not active (<40% inhibition))
CCCCCC(C)=O,Cell-based activity (IC50 in μM),AgamORco [3]; ref [25],NA (not or marginally active (≤40% inhibition) in the ex vivo assays)
same,Ex vivo validation,AgamORco [3],NA (not active (<40% inhibition))
CCCCCCCC(=O)O,% response at 100μΜ OA,AgamORco [1],81%
Cc1ccc(C(C)C)cc1O,Antagonist type,AgamORco [2],allosteric
same,RI (at 10nmole/cm^2),Aedes albopictus,0.17 ± 0.01
Aromadendrene,pIC50 ± error,AgamORco [4]; OA conc. 50 μM,4.599 ± 0.09235
same,pIC50 ± error,AgamORco [4]; OA conc. 150 μM,4.668 ± 0.07359
same,IC50,AgamORco [4]; [6],25.2 µM
same,IC50,AgamORco [4]; [7],21.5 µM
same,Antagonist type,AgamORco [4],allosteric
same,RI (at 10nmole/cm^2),Aedes albopictus,0.25 ± 0.03
Cumin alcohol,Antagonist type,AgamORco [2],allosteric
γ-Undecalactone,Cell-based activity (IC50 in μM),AgamORco [1],NA (not or marginally active (≤40% inhibition) in the ex vivo assays)
same,Ex vivo validation,AgamORco [1],NA (Not active or less than 40% maximum inhibition in the competition assay)
Geranyl acetone,% response at 100μΜ OA,AgamORco [1],92%
"(4R,6R,8R)- trimethyldecan-2-one",IC50,AgamORco [4]; [5],57 µM
same,Antagonist type,AgamORco [4],orthosteric
same,Ex vivo validation,AgamORco [1],√ (Validated antagonist hits have been defined as VOCs causing at least 40% inhibition of ORco activity in the ex vivo assays)
CC1=CC[C@@H](C(C)(C)O)CC1,inhibition of ORco activity,AgamORco [1],no- or low-activity inhibitors
same,% response at 100μΜ OA,AgamORco [1],100%
CCCCCCCCC=O,inhibition of ORco activity,AgamORco [1],reduced activities bordering the arbitrary cutoff inhibition limit
same,% response at 100μΜ OA,AgamORco [1],65%
"(2E,4E)-Decadienal",pIC50 ± error,AgamORco [4]; OA conc. 50 μM,4.7384 ± 0.05967
same,pIC50 ± error,AgamORco [4]; OA conc. 150 μM,4.073 ± 0.1405
same,IC50,AgamORco [4]; [6],18.3 µM
same,IC50,AgamORco [4]; [7],84.4 µM
same,Antagonist type,AgamORco [4],orthosteric
same,Ex vivo validation,AgamORco [1],√ (Validated antagonist hits have been defined as VOCs causing at least 40% inhibition of ORco activity in the ex vivo assays)
same,RI (at 10nmole/cm^2),Aedes albopictus,0.71 ± 0.05
Limonene,% response at 100μΜ OA,AgamORco [1],82%
"CC1(C)C2CC3OC3(C)C1C2 (stereo not drawn) [compound 62, α-Pinene oxide]",pIC50 ± error,AgamORco [4]; OA conc. 50 μM,4.309 ± 0.2591
same,pIC50 ± error,AgamORco [4]; OA conc. 150 μM,4.191 ± 0.03993
same,IC50,AgamORco [4]; [5],52 µM
same,Antagonist type,AgamORco [4],allosteric

# Like-named read-outs stand apart in the source and are kept apart here.
